pEC50: −log10 of the molar value.
Experiments:
mMC4R = mMC4R (Mus musculus, UniProt P56450); experiment: AlphaScreen cAMP antagonist assay; type: cell-based; conditions: for fold less potent than 1 at the mMC4R: fold change from Ki values, compared to lead ligand 1; for selectivity for the mMC4R over the mMC3R: fold more potent at mMC4R than mMC3R
mMC3R [1] = molecular target: T1, mMC3R (Mus musculus, UniProt P33033); conditions: fold change from Ki values, compared to lead ligand 1
mMC1R = mMC1R (Mus musculus, UniProt Q01727); experiment: cell-based
mMC3R [2] = molecular target: T1, mMC3R; experiment: cell-based

The chains behind the UniProt entries cited, without tags or fusion partners. Where a name states a change or a piece, a line headed by the entry shows the natural chain unless it says otherwise.
UniProt P56450, whole entry: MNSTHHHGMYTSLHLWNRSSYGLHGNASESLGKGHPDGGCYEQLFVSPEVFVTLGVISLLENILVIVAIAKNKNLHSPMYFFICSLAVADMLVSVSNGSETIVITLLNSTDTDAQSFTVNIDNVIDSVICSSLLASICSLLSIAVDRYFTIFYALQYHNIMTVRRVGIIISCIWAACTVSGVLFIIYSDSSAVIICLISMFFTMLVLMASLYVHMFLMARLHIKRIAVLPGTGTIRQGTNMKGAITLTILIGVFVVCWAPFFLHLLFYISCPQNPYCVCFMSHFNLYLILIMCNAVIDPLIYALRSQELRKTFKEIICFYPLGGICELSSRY
UniProt P33033: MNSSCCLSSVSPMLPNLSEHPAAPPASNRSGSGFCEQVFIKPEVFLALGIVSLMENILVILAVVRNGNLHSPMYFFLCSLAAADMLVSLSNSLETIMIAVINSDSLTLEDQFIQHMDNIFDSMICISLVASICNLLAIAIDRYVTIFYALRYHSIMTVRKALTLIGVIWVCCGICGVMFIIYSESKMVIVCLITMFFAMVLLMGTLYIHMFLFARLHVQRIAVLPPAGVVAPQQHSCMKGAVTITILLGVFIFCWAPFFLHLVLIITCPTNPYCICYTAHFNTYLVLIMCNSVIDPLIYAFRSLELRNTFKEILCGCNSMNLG
UniProt Q01727: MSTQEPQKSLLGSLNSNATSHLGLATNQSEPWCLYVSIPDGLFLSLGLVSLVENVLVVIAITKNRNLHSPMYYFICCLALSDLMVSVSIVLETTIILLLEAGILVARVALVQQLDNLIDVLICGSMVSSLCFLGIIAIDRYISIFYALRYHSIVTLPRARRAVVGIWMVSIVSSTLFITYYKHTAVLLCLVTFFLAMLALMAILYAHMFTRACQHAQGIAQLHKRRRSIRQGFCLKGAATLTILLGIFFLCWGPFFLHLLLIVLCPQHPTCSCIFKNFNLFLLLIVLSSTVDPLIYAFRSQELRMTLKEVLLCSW

SMILES: C[C@@H]1NC(=O)[C@H](CC(N)=O)NC(=O)[C@H](Cc2ccccc2)NC(=O)[C@H](Cc2ccccc2)NC(=O)[C@H](CCCNC(=N)N)NC(=O)[C@@H]2CCCN2C(=O)[C@H]2CCCN2C(=O)[C@H](CO)NC1=O [Compound 3, c[Pro-Arg-Phe-Phe-Asn-Ala-Ser-DPro]]
- fold less potent than 1 at the mMC4R (mMC4R): 10 fold

SMILES: C[C@@H]1NC(=O)[C@H](CC(N)=O)NC(=O)[C@H](Cc2ccccc2)NC(=O)[C@H](Cc2ccccc2)NC(=O)[C@H](CCCNC(=N)N)NC(=O)[C@@H]2CCCN2C(=O)[C@H]2CCCN2C(=O)[C@H](CC2CCCCC2)NC1=O [Compound 10, c[Pro-Arg-Phe-Phe-Asn-Ala-Cha-DPro]]
- fold decreased potency compared to 1 at the mMC3R (mMC3R [1]): 3 fold
- pEC50 (mMC1R): < 4.00

SMILES: C[C@@H]1NC(=O)[C@H](CC(N)=O)NC(=O)[C@H](Cc2ccccc2)NC(=O)[C@H](Cc2ccccc2)NC(=O)[C@H](CCCNC(=N)N)NC(=O)[C@@H]2CCCN2C(=O)[C@H]2CCCN2C(=O)[C@H](CCCCN)NC1=O [Compound 4, c[Pro-Arg-Phe-Phe-Asn-Ala-Lys-DPro]]
- fold decreased potency compared to 1 at the mMC3R (mMC3R [1]): 4 fold
- pEC50 (mMC1R): < 4.00
- selectivity for the mMC4R over the mMC3R (mMC4R): 8 fold

SMILES: C[C@@H]1NC(=O)[C@H](CC(N)=O)NC(=O)[C@H](Cc2ccccc2)NC(=O)[C@H](Cc2ccccc2)NC(=O)[C@H](CCCNC(=N)N)NC(=O)[C@@H]2CCCN2C(=O)[C@H]2CCCN2C(=O)[C@H](Cc2ccc(O)cc2)NC1=O [Compound 9, c[Pro-Arg-Phe-Phe-Asn-Ala-Tyr-DPro]]
- fold decreased potency compared to 1 at the mMC3R (mMC3R [1]): equipotent
- pEC50 (mMC1R): < 4.00
- fold less potent than 1 at the mMC4R (mMC4R): equipotent
- selectivity for the mMC4R over the mMC3R (mMC4R): 60 fold

SMILES: CC(C)C[C@@H]1NC(=O)[C@H](C)NC(=O)[C@H](CC(N)=O)NC(=O)[C@H](Cc2ccccc2)NC(=O)[C@H](Cc2ccccc2)NC(=O)[C@H](CCCNC(=N)N)NC(=O)[C@@H]2CCCN2C(=O)[C@H]2CCCN2C1=O [Compound 6, c[Pro-Arg-Phe-Phe-Asn-Ala-Leu-DPro]]
- Kb (mMC3R [2]): > 3.16 µM
- pEC50 (mMC1R): < 4.00
- fold less potent than 1 at the mMC4R (mMC4R; listed as KAF2039-6): 15 fold
- fold less potent than 1 at the mMC4R (mMC4R; listed as Leu^7): approximately 15 fold

SMILES: C[C@@H]1NC(=O)[C@H](CC(N)=O)NC(=O)[C@H](Cc2ccccc2)NC(=O)[C@H](Cc2ccccc2)NC(=O)[C@H](CCCNC(=N)N)NC(=O)[C@@H]2CCCN2C(=O)[C@H]2CCCN2C(=O)CNC1=O [Compound 2, c[Pro-Arg-Phe-Phe-Asn-Ala-Gly-DPro]]
- Kb (mMC3R [2]): > 3.16 µM
- fold less potent than 1 at the mMC4R (mMC4R): 110 fold

SMILES: C[C@@H]1NC(=O)[C@H](CC(N)=O)NC(=O)[C@H](Cc2ccccc2)NC(=O)[C@H](Cc2ccccc2)NC(=O)[C@H](CCCNC(=N)N)NC(=O)[C@@H]2CCCN2C(=O)[C@H]2CCCN2C(=O)[C@H](CCc2ccccc2)NC1=O [Compound 11, c[Pro-Arg-Phe-Phe-Asn-Ala-hPhe-DPro]]
- fold decreased potency compared to 1 at the mMC3R (mMC3R [1]): equipotent
- pEC50 (mMC1R): < 4.00
- selectivity for the mMC4R over the mMC3R (mMC4R): 6 fold

SMILES: C[C@@H]1NC(=O)[C@H](CC(N)=O)NC(=O)[C@H](Cc2ccccc2)NC(=O)[C@H](Cc2ccccc2)NC(=O)[C@H](CCCNC(=N)N)NC(=O)[C@@H]2CCCN2C(=O)[C@H]2CCCN2C(=O)[C@H](Cc2c[nH]c3ccccc23)NC1=O [Compound 8, c[Pro-Arg-Phe-Phe-Asn-Ala-Trp-DPro]]
- fold decreased potency compared to 1 at the mMC3R (mMC3R [1]): equipotent
- fold less potent than 1 at the mMC4R (mMC4R): equipotent

SMILES: CCCC[C@@H]1NC(=O)[C@H](C)NC(=O)[C@H](CC(N)=O)NC(=O)[C@H](Cc2ccccc2)NC(=O)[C@H](Cc2ccccc2)NC(=O)[C@H](CCCNC(=N)N)NC(=O)[C@@H]2CCCN2C(=O)[C@H]2CCCN2C1=O [Compound 7, c[Pro-Arg-Phe-Phe-Asn-Ala-Nle-DPro]]
- fold decreased potency compared to 1 at the mMC3R (mMC3R [1]): equipotent
- pEC50 (mMC1R): < 4.00
- fold less potent than 1 at the mMC4R (mMC4R): equipotent
- selectivity for the mMC4R over the mMC3R (mMC4R): 200 fold

Reference: PMC5955836 (ACS chemical neuroscience, 2018)
